By UniProt entry, the sequences of proteins in these tests, tags left out. Where a name states a change or a piece, a line headed by the entry shows the natural chain unless it says otherwise.
UniProt P23458: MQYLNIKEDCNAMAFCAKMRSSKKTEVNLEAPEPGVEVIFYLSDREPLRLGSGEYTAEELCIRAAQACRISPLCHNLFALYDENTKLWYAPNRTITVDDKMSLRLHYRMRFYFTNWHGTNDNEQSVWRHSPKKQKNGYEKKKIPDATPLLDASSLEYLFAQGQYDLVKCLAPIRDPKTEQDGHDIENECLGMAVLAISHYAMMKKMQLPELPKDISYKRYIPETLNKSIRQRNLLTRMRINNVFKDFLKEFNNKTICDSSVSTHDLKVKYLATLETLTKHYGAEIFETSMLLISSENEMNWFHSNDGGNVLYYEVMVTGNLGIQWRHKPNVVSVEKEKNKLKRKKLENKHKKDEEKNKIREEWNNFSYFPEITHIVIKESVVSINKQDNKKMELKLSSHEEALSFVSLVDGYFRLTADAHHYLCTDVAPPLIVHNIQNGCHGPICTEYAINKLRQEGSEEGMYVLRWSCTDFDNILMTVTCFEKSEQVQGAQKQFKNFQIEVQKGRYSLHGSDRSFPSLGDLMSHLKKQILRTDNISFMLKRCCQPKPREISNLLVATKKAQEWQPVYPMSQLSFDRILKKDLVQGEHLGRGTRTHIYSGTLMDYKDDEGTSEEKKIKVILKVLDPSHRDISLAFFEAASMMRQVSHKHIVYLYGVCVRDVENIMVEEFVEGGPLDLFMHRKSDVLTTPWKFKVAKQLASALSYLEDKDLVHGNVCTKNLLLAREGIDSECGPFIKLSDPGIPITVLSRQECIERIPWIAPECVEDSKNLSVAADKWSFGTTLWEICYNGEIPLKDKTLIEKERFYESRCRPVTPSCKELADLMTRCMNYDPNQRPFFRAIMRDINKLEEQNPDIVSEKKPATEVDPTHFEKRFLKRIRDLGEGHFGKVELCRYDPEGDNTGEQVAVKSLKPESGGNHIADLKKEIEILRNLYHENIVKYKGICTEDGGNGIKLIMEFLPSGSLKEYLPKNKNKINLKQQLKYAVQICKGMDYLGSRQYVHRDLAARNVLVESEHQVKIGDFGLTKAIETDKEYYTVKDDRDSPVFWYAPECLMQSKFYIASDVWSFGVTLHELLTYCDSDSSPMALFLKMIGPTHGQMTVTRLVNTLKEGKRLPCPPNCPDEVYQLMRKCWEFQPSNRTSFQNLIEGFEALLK
UniProt P29597: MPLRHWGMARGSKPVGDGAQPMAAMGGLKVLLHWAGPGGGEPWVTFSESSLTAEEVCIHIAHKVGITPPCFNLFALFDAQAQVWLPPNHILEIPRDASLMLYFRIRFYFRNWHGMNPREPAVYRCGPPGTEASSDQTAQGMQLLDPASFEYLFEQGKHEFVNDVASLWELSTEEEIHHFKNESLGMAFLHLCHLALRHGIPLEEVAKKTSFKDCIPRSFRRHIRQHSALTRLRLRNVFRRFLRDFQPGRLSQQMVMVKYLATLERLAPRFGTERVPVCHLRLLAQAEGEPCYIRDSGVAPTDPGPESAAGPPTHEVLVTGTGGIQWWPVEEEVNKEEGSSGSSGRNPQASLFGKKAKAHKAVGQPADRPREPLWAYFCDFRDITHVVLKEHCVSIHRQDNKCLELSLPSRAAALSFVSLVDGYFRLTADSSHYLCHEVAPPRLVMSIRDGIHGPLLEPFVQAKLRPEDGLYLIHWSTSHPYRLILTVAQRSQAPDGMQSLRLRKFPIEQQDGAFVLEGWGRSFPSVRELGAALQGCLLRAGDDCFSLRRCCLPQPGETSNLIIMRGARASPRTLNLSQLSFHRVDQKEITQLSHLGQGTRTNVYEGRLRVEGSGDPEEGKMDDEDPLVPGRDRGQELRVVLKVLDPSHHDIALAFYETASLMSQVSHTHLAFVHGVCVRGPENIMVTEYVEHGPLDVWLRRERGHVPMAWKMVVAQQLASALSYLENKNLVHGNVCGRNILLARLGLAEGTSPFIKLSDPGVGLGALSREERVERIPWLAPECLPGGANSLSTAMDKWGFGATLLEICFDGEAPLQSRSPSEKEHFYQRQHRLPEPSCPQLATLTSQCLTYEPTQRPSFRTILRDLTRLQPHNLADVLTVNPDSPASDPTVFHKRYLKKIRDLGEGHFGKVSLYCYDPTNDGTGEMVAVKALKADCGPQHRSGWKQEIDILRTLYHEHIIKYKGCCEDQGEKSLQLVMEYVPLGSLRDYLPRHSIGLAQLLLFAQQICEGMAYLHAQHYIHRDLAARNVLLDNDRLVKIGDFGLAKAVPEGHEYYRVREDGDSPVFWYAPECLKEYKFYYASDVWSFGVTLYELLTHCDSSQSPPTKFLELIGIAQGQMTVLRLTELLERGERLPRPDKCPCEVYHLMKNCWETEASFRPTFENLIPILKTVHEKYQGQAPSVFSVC
UniProt O60674: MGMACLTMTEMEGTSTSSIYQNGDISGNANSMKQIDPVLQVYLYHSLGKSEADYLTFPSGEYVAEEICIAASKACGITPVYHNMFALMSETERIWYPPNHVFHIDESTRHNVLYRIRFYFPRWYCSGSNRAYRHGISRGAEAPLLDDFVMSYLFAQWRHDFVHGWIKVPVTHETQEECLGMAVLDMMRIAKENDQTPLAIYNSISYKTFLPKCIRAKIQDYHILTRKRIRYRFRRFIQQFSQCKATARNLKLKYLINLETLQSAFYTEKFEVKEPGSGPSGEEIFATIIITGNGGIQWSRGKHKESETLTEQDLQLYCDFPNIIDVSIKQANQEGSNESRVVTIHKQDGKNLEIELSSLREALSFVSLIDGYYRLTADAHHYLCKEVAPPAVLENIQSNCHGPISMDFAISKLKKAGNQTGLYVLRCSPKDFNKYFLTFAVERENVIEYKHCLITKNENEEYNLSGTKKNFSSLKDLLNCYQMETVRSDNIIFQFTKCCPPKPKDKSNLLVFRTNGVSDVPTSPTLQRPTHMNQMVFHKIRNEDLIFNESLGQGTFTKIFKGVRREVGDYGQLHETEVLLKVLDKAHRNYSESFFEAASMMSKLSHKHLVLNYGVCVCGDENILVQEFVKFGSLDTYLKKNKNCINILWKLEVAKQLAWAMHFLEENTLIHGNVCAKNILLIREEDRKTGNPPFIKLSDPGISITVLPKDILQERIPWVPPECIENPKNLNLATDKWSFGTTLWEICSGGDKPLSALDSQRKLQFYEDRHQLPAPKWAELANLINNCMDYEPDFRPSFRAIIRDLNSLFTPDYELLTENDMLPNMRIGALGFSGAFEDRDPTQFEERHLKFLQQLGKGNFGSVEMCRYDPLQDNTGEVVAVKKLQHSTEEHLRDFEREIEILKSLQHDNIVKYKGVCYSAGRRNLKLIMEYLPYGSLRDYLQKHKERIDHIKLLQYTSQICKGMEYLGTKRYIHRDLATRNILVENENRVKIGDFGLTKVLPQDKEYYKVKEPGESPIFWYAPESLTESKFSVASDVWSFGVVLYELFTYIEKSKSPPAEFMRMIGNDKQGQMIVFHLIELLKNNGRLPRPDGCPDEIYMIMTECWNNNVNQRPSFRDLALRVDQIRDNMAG

According to ChEMBL document CHEMBL5725597, “Substituted pyrrolo[3′,2′:5,6]pyrido[4,3-d]pyrimidines and JAK inhibitors comprising the same” (2017):

These compounds were tested against T1, Tyrosine-protein kinase JAK3 (Homo sapiens, UniProt P52333) (assay: not given).
T1 sequence (P52333 whole entry): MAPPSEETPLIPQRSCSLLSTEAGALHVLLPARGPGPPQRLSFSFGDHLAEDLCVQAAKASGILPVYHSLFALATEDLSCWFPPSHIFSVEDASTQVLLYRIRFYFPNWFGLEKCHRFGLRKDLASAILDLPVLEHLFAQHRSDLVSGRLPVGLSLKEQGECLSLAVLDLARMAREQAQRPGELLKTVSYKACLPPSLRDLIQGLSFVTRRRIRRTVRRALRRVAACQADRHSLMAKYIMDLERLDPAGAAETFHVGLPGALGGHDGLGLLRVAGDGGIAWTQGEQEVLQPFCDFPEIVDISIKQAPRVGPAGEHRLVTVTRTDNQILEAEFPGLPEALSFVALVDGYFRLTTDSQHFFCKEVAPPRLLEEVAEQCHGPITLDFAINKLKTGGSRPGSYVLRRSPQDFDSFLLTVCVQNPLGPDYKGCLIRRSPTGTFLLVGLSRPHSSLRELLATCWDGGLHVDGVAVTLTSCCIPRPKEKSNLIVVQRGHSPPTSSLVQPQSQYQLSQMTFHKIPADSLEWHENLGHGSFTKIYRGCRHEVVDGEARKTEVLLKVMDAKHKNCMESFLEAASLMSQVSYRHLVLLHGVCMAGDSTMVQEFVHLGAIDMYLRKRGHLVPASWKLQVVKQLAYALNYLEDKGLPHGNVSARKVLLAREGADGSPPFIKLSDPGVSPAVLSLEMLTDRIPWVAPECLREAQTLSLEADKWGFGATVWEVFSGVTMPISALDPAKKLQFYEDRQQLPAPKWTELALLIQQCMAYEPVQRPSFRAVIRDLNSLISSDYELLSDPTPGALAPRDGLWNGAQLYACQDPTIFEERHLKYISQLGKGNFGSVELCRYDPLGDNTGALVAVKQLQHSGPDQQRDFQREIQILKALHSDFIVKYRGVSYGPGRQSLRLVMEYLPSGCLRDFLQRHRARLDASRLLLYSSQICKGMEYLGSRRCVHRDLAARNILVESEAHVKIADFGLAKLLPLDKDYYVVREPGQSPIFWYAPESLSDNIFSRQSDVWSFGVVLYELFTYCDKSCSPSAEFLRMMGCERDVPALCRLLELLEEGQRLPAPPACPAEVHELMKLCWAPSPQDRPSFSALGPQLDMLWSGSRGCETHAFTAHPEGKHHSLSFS

| Compound | IC50 [nM] |
| --- | --- |
| O=C(Nc1nncs1)N1CCCC(c2nnn3cnc4[nH]ccc4c23)C1 (racemic) | 510 |
| N#CCC(=O)N1CCCC(c2ncn3cnc4[nH]ccc4c23)C1 (racemic) | 65 |

What follows are compounds tested against Tyrosine-protein kinase JAK1 (Homo sapiens, UniProt P23458) (assay: not given).

| Compound | IC50 [nM] |
| --- | --- |
| N#Cc1ccc(CN2CCCC(c3nnn4cnc5[nH]ccc5c34)C2)cc1 (configuration not stated) | 330 |
| O[C@H]1CC[C@H](c2nnn3cnc4[nH]ccc4c23)CC1 | 0.084 |
| c1cncc(CN2CCCC(c3nnn4cnc5[nH]ccc5c34)C2)c1 (racemic) | 45 |

The compounds below were run against Non-receptor tyrosine-protein kinase TYK2 (Homo sapiens, UniProt P29597) (assay: Enzyme Assay: JAK1, JAK2, JAK3 and Tyk2 were purchased from Carna Biosciences, Inc. As the substrate, LANCE Ultra ULight-JAK1 Peptide (manufactured by PerkinElmer Co., Ltd. (PE)) was used. Dilute solutions of compounds and enzymes in assay buffer (50 mM HEPES pH7.5, 1 mM EGTA, 1 mM MgCl2, 2 mM DTT, 0.01% Tween20) were dispensed into wells of a 384-well black plate. After 5 minutes of …).

| Compound | IC50 [nM] |
| --- | --- |
| FC(F)(F)c1cc(CN2CCC(c3nnn4cnc5[nH]ccc5c34)CC2)ccc1Cl | 140 |
| Fc1ccc(NC[C@H]2CC[C@H](c3nnn4cnc5[nH]ccc5c34)CC2)c(C(F)(F)F)c1 | 800 |

What follows are compounds tested against Tyrosine-protein kinase JAK2 (Homo sapiens, UniProt O60674) in the same assay as above.

| Compound | IC50 [nM] |
| --- | --- |
| Cc1cc(OC(F)(F)F)ccc1NC1CCC(c2nnn3cnc4[nH]ccc4c23)CC1 (configuration not stated) | 270 |
| FC(F)(F)c1cc(CN2CCC(c3nnn4cnc5[nH]ccc5c34)CC2)cc(C(F)(F)F)c1 | 230 |
| N#Cc1ccc(CN2CCCC(c3nnn4cnc5[nH]ccc5c34)C2)cc1 (configuration not stated) | 280 |
| O=C(Nc1nncs1)N1CCCC(c2nnn3cnc4[nH]ccc4c23)C1 (racemic) | 1600 |
| O=C(OCc1ccccc1)N1CCCC(c2ncn3cnc4[nH]ccc4c23)C1 (racemic) | 150 |
